Literature values, collected in US6653504B1, “Non-hygroscopic salts of active ingredients having therapeutical and/or nutritional activities and orally administrable compositions containing same” (Sigma-Tau Industrie Farmaceutiche Riunite S.p.A., priority 1999, dated 2003).

Conditions: background statement, no conditions given; cited from earlier work

acetyl L(−)-carnitine acid fumarate and tartrate [acetyl L(−)-carnitine tartrate]
Hygroscopicity of known salts: strongly hygroscopic
